pKi: −log10 of the molar value.

Amino acid sequences for entries named in this document (tags omitted).
UniProt P04035, whole entry: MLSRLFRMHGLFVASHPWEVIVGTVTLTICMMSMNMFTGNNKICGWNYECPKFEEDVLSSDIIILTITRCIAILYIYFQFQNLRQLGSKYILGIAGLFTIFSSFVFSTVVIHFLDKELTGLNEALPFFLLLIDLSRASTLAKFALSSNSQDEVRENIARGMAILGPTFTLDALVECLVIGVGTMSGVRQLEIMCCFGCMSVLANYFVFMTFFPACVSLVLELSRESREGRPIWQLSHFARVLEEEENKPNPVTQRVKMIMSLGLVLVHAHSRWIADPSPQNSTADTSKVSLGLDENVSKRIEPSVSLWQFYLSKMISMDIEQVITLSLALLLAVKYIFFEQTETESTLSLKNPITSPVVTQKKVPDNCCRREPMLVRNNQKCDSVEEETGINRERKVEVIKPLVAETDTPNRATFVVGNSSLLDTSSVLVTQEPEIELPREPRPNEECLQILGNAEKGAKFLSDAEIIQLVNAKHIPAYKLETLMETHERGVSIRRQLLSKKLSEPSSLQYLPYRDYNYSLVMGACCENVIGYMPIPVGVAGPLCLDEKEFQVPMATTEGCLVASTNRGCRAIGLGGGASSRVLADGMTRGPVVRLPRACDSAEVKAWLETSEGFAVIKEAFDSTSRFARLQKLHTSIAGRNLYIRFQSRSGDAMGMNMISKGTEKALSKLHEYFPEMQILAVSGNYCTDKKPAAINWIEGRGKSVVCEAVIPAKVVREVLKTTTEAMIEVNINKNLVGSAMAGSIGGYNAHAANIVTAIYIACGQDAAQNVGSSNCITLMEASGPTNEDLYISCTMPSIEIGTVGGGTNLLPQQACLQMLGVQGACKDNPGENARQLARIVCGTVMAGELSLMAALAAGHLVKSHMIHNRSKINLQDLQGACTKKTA

This note sets out measurements from patent US20070185193A1, “Huvastatin and its preparation and formulation comprising the huvastatin” (HUAIBEI HUIKE PHARMACEUTICAL, CO. LTD., priority 2003, published 2007).

Data set [1] addresses HMG-CoA reductase (Homo sapiens, UniProt P04035). In words: Inhibiting constant Ki of statins with HMG-CoA (reductase), conventional methods. Type of data set: biochemical. The note with it: read-out: Ki (inhibiting constant with HMG-CoA); tested form: K salt.
Data set [2] is described as follows: log D determined at pH 7.4. The note with it: tested form: K salt.
Data set [3] has as its system rats. In words: Animal test: blood lipid level and cholesterol in rats. The note with it: twice per day, 0.05 or 0.1 mg/dose/rat, blood samples after one week, tested form: K salt.

What is called pKi is the Ki on a negative log10 scale, so that one unit is a factor of ten. A word on the log D: it is lipophilicity at a set pH, counting ionised and neutral species. As for `CCC(C)(C)C(=O)O[C@H]1C[C@@H](O)C=C2C=C[C@H](C)[C@H](CC[C@@H](O)C[C@@H](O)CC(=O)O)[C@H]21`, in data set [1], the pKi was 8.14. Besides, in data set [2], the log D was found to be 0.42. In data set [3], the “blood lipid versus control group” value was “lower than that of the control group” and the “lipid-lowering effect, comparison among Compounds 1-3” value was “best lipid-lowering effect”.
